Structures are written as SMILES. A value given as a limit tells only on which side of the number the result lay.

Amino acid sequences for entries named in this document (tags omitted). A change or cut given only in a name is not applied to a line headed by its entry.
UniProt P29275, whole entry: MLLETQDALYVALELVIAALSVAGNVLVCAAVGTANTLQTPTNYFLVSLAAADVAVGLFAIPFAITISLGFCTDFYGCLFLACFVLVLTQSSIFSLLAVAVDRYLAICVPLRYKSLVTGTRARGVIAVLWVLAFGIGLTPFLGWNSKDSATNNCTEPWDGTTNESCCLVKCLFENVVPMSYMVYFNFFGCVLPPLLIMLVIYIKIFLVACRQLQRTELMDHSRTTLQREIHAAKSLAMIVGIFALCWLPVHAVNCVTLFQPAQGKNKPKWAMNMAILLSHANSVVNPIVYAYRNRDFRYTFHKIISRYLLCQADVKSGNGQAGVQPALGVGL
UniProt P30542, whole entry: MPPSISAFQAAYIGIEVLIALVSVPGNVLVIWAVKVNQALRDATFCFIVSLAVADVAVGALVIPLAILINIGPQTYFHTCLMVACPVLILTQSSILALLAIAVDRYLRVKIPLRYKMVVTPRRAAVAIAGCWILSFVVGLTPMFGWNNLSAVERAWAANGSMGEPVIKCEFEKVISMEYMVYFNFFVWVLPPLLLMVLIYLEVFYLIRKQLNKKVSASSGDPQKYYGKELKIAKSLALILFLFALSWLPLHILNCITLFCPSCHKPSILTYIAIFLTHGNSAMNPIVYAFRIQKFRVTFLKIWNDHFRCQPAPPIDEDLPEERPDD
UniProt P0DMS8, whole entry: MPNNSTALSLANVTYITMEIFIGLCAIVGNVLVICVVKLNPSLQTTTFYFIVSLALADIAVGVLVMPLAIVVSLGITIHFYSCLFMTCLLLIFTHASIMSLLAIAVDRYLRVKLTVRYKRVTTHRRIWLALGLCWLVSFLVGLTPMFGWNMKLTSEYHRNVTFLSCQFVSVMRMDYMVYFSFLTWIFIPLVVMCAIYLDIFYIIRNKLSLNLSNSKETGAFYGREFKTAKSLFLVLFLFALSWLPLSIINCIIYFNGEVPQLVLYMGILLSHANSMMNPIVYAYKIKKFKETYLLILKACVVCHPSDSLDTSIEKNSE

For one assay, the target named is human A2B receptor (Homo sapiens (Human), UniProt P29275). In words: Intracellular cAMP functional assay (HTRF), A2B. The conditions noted are these: read-out: Human A2B EC50, HEK293 cells expressing recombinant human receptor. The procedure: (§1) Compound activity in human adenosine receptors A2A, A2B, A1, and A3 was measured in this functional cellular assay using an HTRF kit (Perkin Elmer). Prior to the test, HEK293 cells expressing recombinant human adenosine receptors were grown in media without antibiotic, were detached by gentle flushing with PBS-EDTA (5 mM EDTA), were recovered by centrifugation and were resuspended in assay buffer (KRH: 5 mM KCl, 1.25 mM MgSO4, 124 mM NaCl, 25 mM HEPES, 13.3 mM Glucose, 1.25 mM KH2PO4, 1.45 mM CaCl2, 0.5 g/l BSA, supplemented with 1 mM IBMX or 25 μM Rolipram). Dose response curves were performed in parallel with the reference compounds. The reference compounds used for A2A, A2B, A1, and A3, were respectively NECA, ZM241385, DPCPX, MRS. 12 μl of cells were mixed with 6 μl of the test compound at increasing concentrations and then incubated 10 min. Thereafter 6 μl of the reference agonist was added at a final concentration corresponding to the historical EC80. The plates were then incubated for 30 min at room temperature. After addition of the lysis buffer and 1 hour incubation, cAMP concentrations were estimated, according to the manufacturer specification, with the HTRF kit. The results showing functional activity of embodied compounds on adenosine receptors are shown below in Table 1.

In another assay the target is human A2A receptor (Homo sapiens (Human), UniProt P29274). As to the kind of experiment: Intracellular cAMP functional assay (HTRF), A2A. As to conditions: read-out: Human A2A EC50, HEK293 cells expressing recombinant human receptor. How it is done:
as §1

The next assay deals with human A1 receptor (Homo sapiens (Human), UniProt P30542). As to the kind of experiment: Intracellular cAMP functional assay (HTRF), A1. As to conditions: read-out: Human A1 EC50, HEK293 cells expressing recombinant human receptor. How it is done:
as §1

The next assay concerns the target human A3 receptor (Homo sapiens (Human), UniProt P0DMS8). In words: Intracellular cAMP functional assay (HTRF), A3. As to conditions: read-out: Human A3 EC50, HEK293 cells expressing recombinant human receptor. How it is done:
as §1

Take `Cc1cc(-c2sc(Nc3nc[nH]n3)nc2-c2cccc(C#N)c2)c(C)cn1`: the EC50 on human A2B receptor was 1.5 nM; on human A2A receptor, > 10000 nM; on human A1 receptor, 251 nM; at human A3 receptor, > 20000 nM.

For the origin of these results see US20250101013A1, “FUNCTIONALIZED AMINOTHIAZOLES” (LEADXPRO AG, priority 2022, published 2025).
